Assay results published in US7642239B2, “Inhibition of placenta growth factor (PLGF) mediated metastasis and/or angiogenesis” (Center for Molecular Medicine and Immunology, priority 2005, dated 2010).

Experiments:
Assay type in all cases: cell-based, human
Conditions in all cases: VEGF 2 nM ± test agent; relative to VEGF-only value; unit assumed
MDA-MB-231 = assay: Wound-healing (motility) assay, MDA-MB-231
Method: (§1) MCF-7, MDA-MB-23 1, and MDA-MB-468 breast tumor cell lines or HECs were seeded onto sterile glass coverslips in Petri dishes or six-well plates. When the cells were 70-80% confluent, the monolayers were scratched with a sterile plastic pipet tip.
(§2) Inhibitor concentrations were 50 μM PD98059 (PD98) (mitogen activated protein kinase-kinase 1 [MEK1] inhibitor), 5 nM Wortmannin (phosphatidyl inositol 3 kinase [PI3K] inhibitor), or human recombinant soluble Flt-1 (sFlt-1) (R&D Systems). […] Cells were pre-incubated with PD98 and Wortmannin for 15-30 min before addition of PlGF. Stained (Wright-Giemsa) and mounted coverslips were examined microscopically. Five to ten 100× fields were evaluated by counting the number of cells separated from the wound edges and which appeared to be migrating toward the center of the wound. Results are reported as the average number of cells migrating into the wound/100× field. In some cases data from separate experiments were combined to accommodate inclusion of various treatments in the tables.
(§3) Antibody concentration was 1 μg/ml. MEK1 inhibitor, PD98059 (PD98), 50 μM. PI3K inhibitor, Wortmannin, 5 nM. […] Values for antibody and inhibitor treatments were from separate experiments which included all relevant controls. […] UT denotes untreated controls. *P<0.01 (ANOVA) compared to UT; † P<0.02 (ANOVA) compared to PlGF only. ‡ P<0.001 (ANOVA) compared to PlGF only.

MDA-MB-468 = assay: Wound-healing (motility) assay, MDA-MB-468
Method: as §1, §2, §3

MCF-7 = assay: Wound-healing (motility) assay, MCF-7
Method: as §1, §2, §3

Measured: Relative activity

VEGF
100%: all assays above
